Test results from patent publication US10513524B2, “PDE9 inhibitors with imidazo triazinone backbone and imidazo pyrazinone backbone for treatment of peripheral diseases” (H. LUNDBECK A/S, priority 2015, dated 2019).

Details: male CD mice, subcutaneous 10 mg/kg

Compound: C[C@@H]1CN(Cc2ncccn2)C[C@H]1c1nc2c(cnn2C2CCOCC2)c(=O)[nH]1 (single isomer, unassigned) [Reference compound, reference compound]
- Plasma concentration after 30 minutes (30 min): 1.23 µg/mL
- Plasma concentration after 120 minutes (120 min): 0.529 µg/mL
